{"source": "patent US20110223202A1", "about": "“CATIONIC CORE-SHELL PEPTIDE NONOPARTICLES” (priority 2007, published 2011)", "details": "rat, in vivo, iv", "procedure": "The external water phase was replaced six times.\nAll procedures involving animals were approved by the DSO IACUC committee and performed according to the guidelines set forth in the National Institutes of Health Guide for the Care and Use of Laboratory Animals (NIH Publications NO. 85-23, revised 1996). […] Animals were sacrificed at 4 h post-injection. They were perfused with Ringer's solution, followed by 4% paraformaldehyde (pH 7.4). Following the perfusion, the brains were removed and kept in a similar fixative for 2 h. They were then kept in 0.1M phosphate buffer containing 20% sucrose overnight at 4° C. Frozen coronal sections of the cerebrum of 30 μm thickness were cut and rinsed in PBS with a cryostat and mounted on slides."}
{"substance": "FITC", "values": [{"measurement": "crossing of the blood-brain barrier", "value": "unable to cross the BBB"}]}
